From patent US20110053934A1, “COMPOUNDS AND METHODS OF TREATMENT” (GLAXOSMITHKLINE LLC, priority 2007, published 2011)

Test system: TT cells, a medullary thyroid cancer cell line with constitutively activated ret
Assay: MTT assay, TT cell proliferation
Format: cell-based
Settings: Homo sapiens, 168 h, read-out: IC50, TT cell proliferation (MTT)
Description: The potency of the compound of the invention was tested for its ability to inhibit cell proliferation and cell viability.

Structure (SMILES): Cc1ccc(O)cc1Nc1ccnc2ccc(S(C)(=O)=O)cc12 [Example 11, N,N-(2-methyl-5-hydroxyphenyl)-(6-methanesulfonylquinolin-4-yl)amine]
- IC50: < 1000 nM
